Patent US12448371B2, “Inhibitor compounds” (Cincera Therapeutics Pty Ltd, priority 2019, dated 2025)

Protein sequences, listed by entry. Tags and fused reporters are not part of them.
UniProt O15121, whole entry: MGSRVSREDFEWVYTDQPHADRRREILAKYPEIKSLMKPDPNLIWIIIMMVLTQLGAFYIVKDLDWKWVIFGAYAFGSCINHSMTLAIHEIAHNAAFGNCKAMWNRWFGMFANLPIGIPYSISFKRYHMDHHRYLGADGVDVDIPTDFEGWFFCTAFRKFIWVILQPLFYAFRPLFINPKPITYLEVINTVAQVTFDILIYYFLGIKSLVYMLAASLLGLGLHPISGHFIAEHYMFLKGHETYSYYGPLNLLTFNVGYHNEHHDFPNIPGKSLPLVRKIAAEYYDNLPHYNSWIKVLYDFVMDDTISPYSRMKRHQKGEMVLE

Experiments:
[1] = molecular target: Des1 (h) (Homo sapiens, UniProt O15121); assay: Measurement of Dihydroceramide Desaturase-1 (Des-1) activity in intact Jurkat cells labeled with DhCer-C6-NBD (HPLC); conditions: read-out: Des1 (h) Jurkat IC50, given as concentration range, or <X / >X if measured at one concentration X only
[2] = test system: Connective Tissue Growth Factor (CTGF) gene expression; assay: Real time quantitative PCR in TGFβ-stimulated human hepatic stellate cells (LX2) to detect CTGF gene expression; assay type: cell-based; conditions: 5 μM; CTGF mRNA in TGFβ-stimulated LX2 cells vs vehicle control
Experimental: Real Time Quantitative Polymerase Chain Reaction in Human Hepatic Stellate Cells (LX2) to Detect Connective Tissue Growth Factor (CTGF) Gene Expression The hepatic stellate cell line, LX2 was maintained in DMEM (LifeTechnologies) with 2% heat-inactivated FBS, 100U penicillin (LifeTechnologies), 0.1 mg/mL streptomycin (LifeTechnologies), and 2 mM L-glutamine (LifeTechnologies) at 37° C. with 5% CO2. Cells were seeded into 6-well plates (200,000 cells per well, 2 mLs media) and grown overnight. The cells were changed to 2 mLs 0.5% FBS media for 24 hours prior to treatment. Treatments were added in 2 mLs fresh 0.5% FBS media (vehicle control, long/mL TGFβ alone (R&D Systems), 10 ng/mL TGFβ+inhibitors) and incubated for 24 hours. […] RNA was extracted using Qiagen RNeasy kit (cat #74104), according to manufacturer's instructions. RNA (1 μg) was used to generate cDNA using the Qiagen Quantitect Reverse Transcription Kit (cat #205311), and stored at -20° C. cDNA was diluted (1:25 final) and combined with Sybr Green (Qiagen cat #204143), forward and reverse primers (50 ng each) and run on Real Time PCR Thermocycler machine (RG-6000, Corbett) with the following PCR conditions: Hold 1: 50° C. for 2 min; Hold 2: 95° C. for 15 min; Cycling: 45 cycles of: 95° C. for 30 sec, 58° C. for 21 sec, 72° C. for 15 sec, Hold 3: 72° C. for 30 sec, Melt: 72° C. to 99° C. […]

NC(=NO)c1cnc(Nc2cnn(-c3ccc(C(F)(F)F)cc3)c2)cn1
IC50 [1]: < 1000 nM | CTGF, LX2 % inhibition [2]: >90%
